According to patent EP4834348A1:
≈ marks a conversion by molar mass, not a printed value.

Experiment: Solubility test of Compound 1 in various media and solvents (25°C)
Settings: for Solubility: 25°C
Experimental: The inventors tested the solubility of Compound 1 (API) in various common media. Table 1 Solubility of Compound 1 in various solvents (25°C)

With N#CCC1(n2cc(-c3ncnc4[nH]ccc34)c(N)n2)CN(C2CCN(C(=O)c3ccnc(C(F)(F)F)c3F)CC2)C1 the Solubility (Purified water) was 0.0225 mg/mL (≈ 39.6 µM), the Solubility (pH1.0 hydrochloric acid medium) was 1.2407 mg/mL (≈ 2180 µM) and the Solubility (pH3.0 citric acid buffer) was 2.921 mg/mL (≈ 5140 µM). For the same molecule, the Solubility (pH4.5 sodium acetate buffer) was 0.0458 mg/mL (≈ 80.6 µM), the Solubility (pH6.8 phosphate buffer) was 0.0199 mg/mL (≈ 35 µM) and the solubility in water (water at 25°C, background statement) was “less than 1 mg/mL”.
